Reference: PubChem BioAssay AID940 (Emory University Molecular Libraries Screening Center, 2007)
The entries are a selection whose mix differs from that of the whole data set. Calls of active or inactive are those of the source.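 How the source made its calls: active means compounds whose cAMP rise, as percent of the full-agonist control response, exceeds 60; inactive means the rest.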

Sequences of proteins named here, by UniProt entry; tags and fusion partners are left off.
UniProt P43116, whole entry: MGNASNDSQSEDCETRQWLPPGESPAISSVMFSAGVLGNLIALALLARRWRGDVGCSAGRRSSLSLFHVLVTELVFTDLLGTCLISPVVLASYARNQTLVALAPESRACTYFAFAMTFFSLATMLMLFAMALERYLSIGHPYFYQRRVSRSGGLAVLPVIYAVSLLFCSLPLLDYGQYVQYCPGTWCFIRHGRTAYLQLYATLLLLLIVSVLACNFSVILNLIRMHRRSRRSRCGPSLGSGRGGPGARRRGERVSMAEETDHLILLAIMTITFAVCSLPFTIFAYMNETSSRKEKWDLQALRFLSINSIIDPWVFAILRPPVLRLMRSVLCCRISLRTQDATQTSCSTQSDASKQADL

What follows are compounds tested against Prostaglandin E2 receptor EP2 subtype (Homo sapiens) (UniProt P43116) (assay: EP2 receptor modulators, cAMP readout, primary screen, cell-based, HTRF cAMP, PGE2 stimulation (AID 940;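 further: rat C6 glioma line stably carrying human EP2 under a CMV promoter; the protocol text gives 20 µM as final concentration; 100% = response of wells given 1 µM PGE2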)). Conditions: EP2-expressing cells, cAMP HTRF FRET, PGE2 co-stimulation; at 25 µM; stronger effect = higher value.
CN(C)c1ccc(C(=O)NCC2(N3CCCCC3)CCCCC2)cc1 was tested, and the induction was inactive: -9.86%.
In the case of CCN1CCC(Nc2cccc(F)c2)CC1, the induction is reported as inactive: 4.76%.
In the case of Fc1ccccc1NC1CCN(Cc2ccccc2)CC1, the induction is reported as inactive: -7.98%.
With CCCOc1ccc(C)cc1CN(CCCl)CCCl the induction was inactive: -2.16%.
For CCC(CO)(C(=O)OC1CN2CCC1CC2)c1ccccc1 (stereo unspecified), the induction was inactive: 6.26%.
COc1cc(OC)cc(C(=O)NCC2(N3CCOCC3)CCCCC2)c1 was tested, and the induction was inactive: -5.69%.
With O=C(O)C1(Nc2ccccc2)CCN(Cc2ccccc2)CC1 the induction was inactive: 10.4%.
With CC(C)(C)OC(=O)N1CCC(Nc2ccccc2)CC1 the induction was inactive: -16.9%.
With CCOc1ncccc1C(=O)NCC1(N2CCOCC2)CCCCC1 the induction was inactive: 9.37%.
In the case of O=C(OC1CN2CCC1CC2)C1c2ccccc2C=Cc2ccccc21 (stereo unspecified), the induction is reported as inactive: -31.8%.
For N/C(=N\O)c1c(N)no[n+]1[O-], the induction was inactive: -5.93%.
In the case of COc1ccc(C(=O)NCC2(N3CCOCC3)CCCCC2)cc1OC, the induction is reported as inactive: -6.5%.
In the case of c1ccc(CN2CCC(Nc3ccccc3)CC2)cc1, the induction is reported as inactive: 3.79%.
With N#Cc1ccc(C(=O)NCC2(N3CCCCC3)CCCCC2)cc1 the induction was inactive: -6.32%.
In the case of CN1CCN(CCOC(=O)C(O)(c2ccccc2)c2ccccc2)CC1, the induction is reported as inactive: 8.68%.
For COc1ccc(NC2CCN(C(=O)OC(C)(C)C)CC2)cc1, the induction was inactive: -15.8%.
For O=C(NCC1(N2CCOCC2)CCCCC1)c1cc(=O)[nH]c2ccccc12, the induction was inactive: -11.1%.
O=C(NCC1(N2CCCCC2)CCCCC1)c1cccc([N+](=O)[O-])c1 was tested, and the induction was inactive: -11%.
With N#CC1(Nc2ccccc2)CCN(CCc2ccccc2)CC1 the induction was inactive: -16.4%.
NC1CCCCC1.NP(=O)(O)N(CCCl)CCCl was tested, and the induction was inactive: -14.4%.
With CN(C)c1cccc(C(=O)NCC2(N3CCCCC3)CCCCC2)c1 the induction was inactive: -41.2%.
COc1ccc(CN(CCCl)CCCl)cc1Cl was tested, and the induction was inactive: -41.1%.
In the case of CC(C)c1ccc(NC2CCN(C(=O)OC(C)(C)C)CC2)cc1, the induction is reported as inactive: -1.65%.
With CCOC(=O)N1CCC(Nc2ccc(OC)cc2)CC1 the induction was inactive: 4.1%.
In the case of N#CC1(Nc2ccccc2)CCN(Cc2ccccc2)CC1, the induction is reported as inactive: -10.8%.
With O=C(OC1CN2CCC1CC2)C1c2ccccc2Oc2ccccc21 (stereo unspecified) the induction was inactive: -10.9%.
O=C(NCC1(N2CCOCC2)CCCCC1)c1cc2ccccc2o1 was tested, and the induction was inactive: 10.8%.
With COc1ccc(C(=O)NCC2(N3CCCCC3)CCCCC2)c(OC)c1OC the induction was inactive: 21.6%.
In the case of Cc1ccc(OCC(C)C)c(CN(CCCl)CCCl)c1, the induction is reported as inactive: 0.68%.
COc1ccc(NC2CCN(CCc3ccccc3)CC2)c(OC)c1 was tested, and the induction was inactive: 3.54%.
In the case of CCOc1ccc(C)cc1CN(CCCl)CCCl, the induction is reported as inactive: -9.97%.
